These are literature values, as cited in patent US12398099B2, “Multi-aziridine compound” (priority 2020, dated 2025).

The conditions of this series: background statement on prior-art crosslinkers.

Consider “pentaerythritol tris[3-(1-aziridinyl)propionate [XAMA-7]”, for which the genotoxic profile result is recorded as “unfavourable genotoxic profile”.
